The target in this test is T1, NPR-B (Homo sapiens, UniProt P20594).
T1 construct: a functional assay using endogenously NPR-B expressing GTM-3 cells; endogenous in cells; host or cells: GTM-3 (transformed human trabecular meshwork cells)
T1 sequence (P20594 23-1047): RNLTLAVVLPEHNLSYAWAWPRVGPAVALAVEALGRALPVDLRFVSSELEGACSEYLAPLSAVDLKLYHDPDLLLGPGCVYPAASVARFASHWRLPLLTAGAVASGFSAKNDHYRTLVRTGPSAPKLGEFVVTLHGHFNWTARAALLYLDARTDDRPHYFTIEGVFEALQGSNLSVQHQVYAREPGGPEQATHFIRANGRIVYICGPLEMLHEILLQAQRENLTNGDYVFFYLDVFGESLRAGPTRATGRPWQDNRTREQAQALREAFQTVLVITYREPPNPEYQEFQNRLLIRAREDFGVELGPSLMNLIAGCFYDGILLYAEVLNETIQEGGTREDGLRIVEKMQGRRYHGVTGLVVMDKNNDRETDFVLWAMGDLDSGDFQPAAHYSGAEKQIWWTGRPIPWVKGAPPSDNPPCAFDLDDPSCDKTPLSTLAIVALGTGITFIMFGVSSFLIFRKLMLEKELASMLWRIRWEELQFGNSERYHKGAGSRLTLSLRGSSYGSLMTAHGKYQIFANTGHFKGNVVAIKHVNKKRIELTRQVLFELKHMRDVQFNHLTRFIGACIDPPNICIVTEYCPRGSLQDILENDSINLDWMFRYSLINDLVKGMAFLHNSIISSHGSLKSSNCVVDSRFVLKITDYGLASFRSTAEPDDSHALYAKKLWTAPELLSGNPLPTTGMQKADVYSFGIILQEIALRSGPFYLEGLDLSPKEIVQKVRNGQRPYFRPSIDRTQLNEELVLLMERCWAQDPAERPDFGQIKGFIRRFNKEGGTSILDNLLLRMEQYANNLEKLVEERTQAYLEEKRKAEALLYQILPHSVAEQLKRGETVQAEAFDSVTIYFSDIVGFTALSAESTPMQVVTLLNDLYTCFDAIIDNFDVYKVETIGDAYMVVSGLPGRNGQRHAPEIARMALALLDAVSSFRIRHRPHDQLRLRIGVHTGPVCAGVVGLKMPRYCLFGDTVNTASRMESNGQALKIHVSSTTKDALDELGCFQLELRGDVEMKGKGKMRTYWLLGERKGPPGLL
Description: NPR-B induced production of cyclic GMP in GTM-3 cells. The test is classed as cell-based. The conditions noted are these: group needs both EC50 and Emax criteria, checked A then B then C, read-out: Activity (group): NPR-B activation, EC50 and Emax (CNP = 100%). On the procedure:
The efficacy and potency of compounds to activate NPR-B were evaluated in a functional assay using endogenously NPR-B expressing GTM-3 cells (Pang et al. 1994, Curr Eye Res 13:51-63). In this assay the dose dependent production of cyclic GMP (cGMP) is determined and Emax (maximum activation) and EC50 values are calculated.
The cell culture medium is aspirated and each well is washed with 200 μl DMEM/Ham's F12=Medium (Gibco). Then, 200 μl Medium supplemented with 1 mM IBMX (3-Isobutyl-1-methyl-xanthin, Sigma) is added to each well and incubated for 15 min. at room temperature.
Final compound concentrations are in the range from 45 μM to 20 nM.

Each structure is given as a SMILES string. A value given as a limit tells only on which side of the number the result lay.

Consider `CCCCCC(=O)N[C@H]1CSSC[C@@H](C(N)=O)NC(=O)[C@H](CO)NC(=O)[C@H]([C@@H](C)CC)NC(=O)[C@H](CCCNC(=N)N)NC(=O)[C@H](CC(=O)O)NC(=O)[C@H](CCCC)NC(=O)[C@H](CCCCN)NC(=O)[C@H](CC(C)C)NC(=O)CNC(=O)[C@H](Cc2ccccc2)NC(=O)[C@@H](C)NC1=O` [compound 83], for which the EC50 was under 1 µM. The figure for `CCCCCC(=O)N[C@H]1CSSC[C@@H](C(N)=O)NC(=O)[C@H](CO)NC(=O)[C@H]([C@@H](C)CC)NC(=O)[C@H](CCCNC(=N)N)NC(=O)[C@H](CC(=O)O)NC(=O)[C@H](CC(C)(C)C)NC(=O)[C@H](CCCCN)NC(=O)[C@H](CC(C)C)NC(=O)CNC(=O)[C@H](Cc2ccccc2)NC(=O)[C@@H](C)NC1=O` [compound 95] is under 1 µM; for `CCCCCC(=O)N[C@H]1CSSC[C@@H](C(N)=O)NC(=O)[C@H](CO)NC(=O)CC2(CCCCC2)NC(=O)[C@H](CCCNC(=N)N)NC(=O)[C@H](CC(=O)O)NC(=O)[C@H](CC(C)C)NC(=O)[C@H](CCCCN)NC(=O)[C@H](CC(C)C)NC(=O)CNC(=O)[C@H](Cc2ccccc2)NC(=O)[C@@H](C)NC1=O` [compound 118] it is under 5 µM. The figure for `CCCCCC(=O)N[C@H]1CSSC[C@@H](C(N)=O)NC(=O)[C@H](CO)NC(=O)[C@H](C2CCCCC2)NC(=O)[C@H](CCCNC(=N)N)NC(=O)[C@H](CC(=O)O)NC(=O)[C@H](CC(C)C)NC(=O)[C@H](CCCCN)NC(=O)[C@H](CC(C)C)NC(=O)CNC(=O)[C@H](Cc2ccccc2)NC(=O)[C@@H](C)NC1=O` [compound 119] is under 5 µM; for `CCCCCC(=O)N[C@H]1CSSC[C@@H](C(N)=O)NC(=O)[C@H](CO)NC(=O)[C@H]([C@@H](C)CC)NC(=O)[C@H](CCCN)NC(=O)[C@H](CC(=O)O)NC(=O)[C@H](CC(C)C)NC(=O)[C@H](CCCCN)NC(=O)[C@H](CC(C)C)NC(=O)CNC(=O)[C@H](Cc2ccccc2)NC(=O)[C@@H](C)NC1=O` [compound 96] it is under 5 µM.

With `CC[C@H](C)[C@@H]1NC(=O)[C@H](CCCNC(=N)N)NC(=O)[C@H](CC(=O)O)NC(=O)[C@H](CC(C)C)NC(=O)[C@H](CCN)NC(=O)[C@H](CC(C)C)NC(=O)CNC(=O)[C@H](Cc2ccccc2)NC(=O)[C@@H](C)NC(=O)[C@@H](NC(=O)[C@@H](N)CCSC)CSSC[C@@H](C(N)=O)NC(=O)[C@H](CO)NC1=O` [compound 50], the EC50 was under 5 µM. The figure for `CCCCCC(=O)N[C@H]1CSSC[C@@H](C(N)=O)NC(=O)[C@H](CO)NC(=O)[C@H]([C@@H](C)CC)NC(=O)[C@H](CCCNC(=N)NC)NC(=O)[C@H](CC(=O)O)NC(=O)[C@H](CC(C)C)NC(=O)[C@H](CCCCN)NC(=O)[C@H](CC(C)C)NC(=O)CNC(=O)[C@H](Cc2ccccc2)NC(=O)[C@@H](C)NC1=O` [compound 98] is under 5 µM. The figure for `CC[C@H](C)[C@@H]1NC(=O)[C@H](CCCNC(=N)N)NC(=O)[C@H](CC(=O)O)NC(=O)[C@H](CC(C)C)NC(=O)[C@H](CCCCN)NC(=O)[C@H](CC(C)C)NC(=O)CNC(=O)[C@H](Cc2ccccc2)NC(=O)[C@@H](C)NC(=O)[C@@H](NC(=O)[C@@H](N)CCSC)CSSC[C@@H](C(N)=O)NC(=O)CCNC1=O` [compound 58] is under 5 µM; for `CC[C@H](C)[C@@H]1NC(=O)[C@H](CCCNC(=N)N)NC(=O)[C@H](CC(=O)O)NC(=O)[C@H](CC(C)C)NC(=O)[C@H](CCCCN)NC(=O)[C@H](CC(C)C)NC(=O)CNC(=O)[C@H](Cc2ccccc2)NC(=O)[C@@H](C)NC(=O)[C@@H](NC(=O)[C@@H](N)CCSC)CCSSC[C@@H](C(N)=O)NC(=O)[C@H](CO)NC1=O` [compound 59] it is under 5 µM; for `CCCCCC(=O)N[C@H]1CSSC[C@@H](C(N)=O)NC(=O)[C@H](CO)NC(=O)[C@H]([C@@H](C)CC)NC(=O)[C@H](CCCNC(=N)N)NC(=O)[C@H](CC(=O)O)NC(=O)[C@H](CC(C)C)NC(=O)[C@@H]2CCN2C(=O)[C@H](CC(C)C)NC(=O)CNC(=O)[C@H](Cc2ccccc2)NC(=O)[C@@H](C)NC1=O` [compound 75] it is under 5 µM. In the case of `CCCCCC(=O)N[C@H]1CSSC[C@@H](C(N)=O)NC(=O)[C@H](CO)NC(=O)[C@H]([C@@H](C)CC)NC(=O)[C@H](CCCCNC(=N)N)NC(=O)[C@H](CC(=O)O)NC(=O)[C@H](CC(C)C)NC(=O)[C@H](CCCCN)NC(=O)[C@H](CC(C)C)NC(=O)CNC(=O)[C@H](Cc2ccccc2)NC(=O)[C@@H](C)NC1=O` [compound 82] it was under 5 µM; in that of `CCCCCC(=O)N[C@H]1CSSC[C@@H](C(N)=O)NC(=O)[C@H](CO)NC(=O)C2(CCCCC2)NC(=O)[C@H](CCCNC(=N)N)NC(=O)[C@H](CC(=O)O)NC(=O)[C@H](CC(C)C)NC(=O)[C@H](CCCCN)NC(=O)[C@H](CC(C)C)NC(=O)CNC(=O)[C@H](Cc2ccccc2)NC(=O)[C@@H](C)NC1=O` [compound 115], under 5 µM. As for `CSCC[C@H](N)C(=O)N[C@H]1CSSC[C@@H](C(N)=O)NC(=O)[C@H](CO)NC(=O)[C@H](C(C)(C)C)NC(=O)[C@H](CCCNC(=N)N)NC(=O)[C@H](CC(=O)O)NC(=O)[C@H](CC(C)C)NC(=O)[C@H](CCCCN)NC(=O)[C@H](CC(C)C)NC(=O)CNC(=O)[C@H](Cc2ccccc2)NC(=O)[C@@H](Cc2c[nH]cn2)NC1=O` [compound 43], the EC50 was under 5 µM.

For `CCCCCC(=O)N[C@H]1CSSC[C@@H](C(N)=O)NC(=O)[C@H](CO)NC(=O)[C@H]([C@@H](C)CC)NC(=O)[C@H](CCCNC(=N)N)NC(=O)[C@H](CC(=O)O)NC(=O)[C@H](CC(C)C)NC(=O)[C@H](CCCCN)NC(=O)[C@H](CC(C)C)NC(=O)CNC(=O)[C@H](Cc2cccc(C)c2)NC(=O)[C@@H](C)NC1=O` [compound 104], the 50% effective concentration (EC50) is under 1 µM. The figure for `CCCCCC(=O)N[C@H]1CSSC[C@@H](C(N)=O)NC(=O)[C@H](CO)NC(=O)[C@H]([C@@H](C)CC)NC(=O)[C@H](CCCNC(=N)N)NC(=O)[C@H](CC(=O)O)NC(=O)[C@H](CC(C)C)NC(=O)[C@H](CCCCN)NC(=O)[C@H](CC(C)C)NC(=O)CNC(=O)[C@H](Cc2cccc(OC)c2)NC(=O)[C@@H](C)NC1=O` [compound 108] is under 5 µM; for `CCCCCC(=O)N[C@H]1CSSC[C@@H](C(N)=O)NC(=O)[C@H](CO)NC(=O)[C@H]([C@@H](C)CC)NC(=O)[C@H](CCCNC(=N)N)NC(=O)[C@H](CC(=O)O)NC(=O)[C@H](C(C)(C)C)NC(=O)[C@H](CCCCN)NC(=O)[C@H](CC(C)C)NC(=O)CNC(=O)[C@H](Cc2ccccc2)NC(=O)[C@@H](C)NC1=O` [compound 84] it is under 5 µM.

Consider `CCCCCC(=O)N[C@H]1CSSC[C@@H](C(N)=O)NC(=O)[C@H](CO)NC(=O)C2(CCCC2)NC(=O)[C@H](CCCNC(=N)N)NC(=O)[C@H](CC(=O)O)NC(=O)[C@H](CC(C)C)NC(=O)[C@H](CCCCN)NC(=O)[C@H](CC(C)C)NC(=O)CNC(=O)[C@H](Cc2ccccc2)NC(=O)[C@@H](C)NC1=O` [compound 110], for which the EC50 was under 5 µM. In the case of `CCCCCC(=O)N[C@H]1CSSC[C@@H](C(N)=O)NC(=O)[C@H](CO)NC(=O)[C@H]([C@@H](C)CC)NC(=O)[C@H](C2CCNCC2)NC(=O)[C@H](CC(=O)O)NC(=O)[C@H](CC(C)C)NC(=O)[C@@H]2CCCN2C(=O)[C@H](CC(C)C)NC(=O)CNC(=O)[C@H](Cc2ccccc2)NC(=O)[C@@H](C)NC1=O` [compound 113] it was under 5 µM; in that of `CC[C@H](C)[C@@H]1NC(=O)[C@H](CCCNC(=N)N)N(C)C(=O)[C@H](CC(=O)O)NC(=O)[C@H](CC(C)C)NC(=O)[C@H](CCCCN)NC(=O)[C@H](CC(C)C)NC(=O)CNC(=O)[C@H](Cc2ccccc2)NC(=O)[C@@H](Cc2c[nH]cn2)NC(=O)[C@@H](NC(=O)[C@@H](N)CCSC)CSSC[C@@H](C(N)=O)NC(=O)[C@H](CO)NC1=O` [compound 48], under 5 µM.

Take `CCCCCC(=O)N[C@H]1CSSC[C@@H](C(N)=O)NC(=O)[C@H](CO)NC(=O)[C@H]([C@@H](C)CC)NC(=O)[C@H](CCc2ccnc(N)n2)NC(=O)[C@H](CC(=O)O)NC(=O)[C@H](CC(C)C)NC(=O)[C@H](CCCCN)NC(=O)[C@H](CC(C)C)NC(=O)CNC(=O)[C@H](Cc2ccccc2)NC(=O)[C@@H](C)NC1=O` [compound 121]: the EC50 was under 5 µM.

(Values after patent publication US9458198B1, “Cyclic peptide-based NPR-B agonists” (priority 2009, dated 2016).)
